We go through five compounds from patent US11053219B2 (dated 2021).

Protein sequences, listed by entry. Tags and fused reporters are not part of them. Residues count along the entry.
UniProt P29597, 589-875: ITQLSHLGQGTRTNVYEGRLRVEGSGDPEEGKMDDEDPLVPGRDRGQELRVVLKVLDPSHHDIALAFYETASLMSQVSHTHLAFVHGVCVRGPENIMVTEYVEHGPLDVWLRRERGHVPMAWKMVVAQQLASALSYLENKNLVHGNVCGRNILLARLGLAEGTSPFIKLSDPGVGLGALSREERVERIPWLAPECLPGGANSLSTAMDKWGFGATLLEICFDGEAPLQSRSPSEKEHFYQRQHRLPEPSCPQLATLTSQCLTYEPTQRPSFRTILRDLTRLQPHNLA

The experiment has as its target TYK2 (JH2 domain) (Homo sapiens (Human), UniProt P29597). Briefly: TYK2 JH2 domain binding assay (DiscoverX KINOMEscan). The conditions noted are these: read-out: TYK2 (JH2 domain) binding Kd.
The mark [1] stands for this setting: KINOMEscan, 11-point 3-fold dilution, duplicate.

Each structure is given as a SMILES string. Where two headings read alike, the source gives them in different places.

With `COc1c(Nc2cc(NC(=O)C3CC3)ncc2C(=O)C2CC2)cccc1-c1ncn(C)n1` [Example 27], the Kd is under 1 nM. For `[2H]C([2H])([2H])Oc1c(Nc2cc(NC(=O)C3CC3)ncc2C(=O)C2CC2)cccc1-c1ncn(C)n1` [Example 34], under setting [1], the Kd was at most 1 nM. On the same count and under the same terms, in the case of `[2H]C([2H])([2H])n1cnc(-c2cccc(Nc3cc(NC(=O)C4CC4)ncc3C(=O)C3CC3)c2OC)n1` [Example 54] it was at most 1 nM; in that of `[2H]C([2H])([2H])Oc1c(Nc2cc(NC(=O)C3CC3)ncc2C(=O)C2CC2)cccc1-c1ncn(C([2H])([2H])[2H])n1` [Example 127], at most 1 nM; in that of `COc1c(-c2ncn(C)n2)ccnc1Nc1cc(NC(=O)C2CC2)ncc1C(=O)C1CC1` [Example 166], at most 1 nM.
